Where a name gives a salt, the structure may show the parent alone.
What was measured:
[1] = test system: CYP1A-like EROD activity; test: in vitro; details: both, Christophersen, Bornhoeved, rainbow trout (Oncorhynchus mykiss), s9, pH 7.8, EROD inhibition in RT-S9, IC50 shift (A/C)
[2] = molecular target: T1, CYP3A-like BFCOD activity (Oncorhynchus mykiss, UniProt O42563); test: BFCOD inhibition in RT-S9 (IC50 shift assay); details: both, Christophersen, Bornhoeved, rainbow trout (Oncorhynchus mykiss), s9, pH 7.8, BFCOD inhibition in RT-S9, IC50 shift (A/C), IC50 Protocol A / IC50 Protocol C
T1 sequence (O42563 1-518): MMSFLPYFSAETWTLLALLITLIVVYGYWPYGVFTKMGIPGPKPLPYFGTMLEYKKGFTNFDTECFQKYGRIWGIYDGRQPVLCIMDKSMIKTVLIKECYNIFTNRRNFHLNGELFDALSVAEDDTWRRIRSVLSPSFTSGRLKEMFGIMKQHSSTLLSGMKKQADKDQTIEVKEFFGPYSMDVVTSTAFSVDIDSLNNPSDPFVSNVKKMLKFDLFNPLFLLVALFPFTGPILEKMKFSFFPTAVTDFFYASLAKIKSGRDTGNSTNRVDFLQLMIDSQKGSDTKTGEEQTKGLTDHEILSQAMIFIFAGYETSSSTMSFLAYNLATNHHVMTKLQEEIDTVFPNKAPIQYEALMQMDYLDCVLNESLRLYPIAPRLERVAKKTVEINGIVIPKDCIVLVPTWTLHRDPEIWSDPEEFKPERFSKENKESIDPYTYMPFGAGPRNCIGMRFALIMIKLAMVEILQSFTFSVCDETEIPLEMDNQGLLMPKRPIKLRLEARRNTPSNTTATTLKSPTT

[3] = set-up: method as in PubChem; details: (e) empirical; ref PubChem; cited from earlier work

Row | SMILES | IC50 shift at 10 min [1] | IC50 shift at 20 min [2] | LogKOW [3]
1 | CN1CCCC(n2nc(Cc3ccc(Cl)cc3)c3ccccc3c2=O)CC1 (stereo not shown) [Azelastine, azelastine hydrochloride] | 0.8 | 0.5 | 4.9 (e)
2 | CCN1CCCC1CNC(=O)c1cc(S(N)(=O)=O)ccc1OC (stereo not shown) [Sulpiride, sulpiride] | – | – | 0.57 (e)

— PMC11284600, “Many human pharmaceuticals are weak inhibitors of the cytochrome P450 system in rainbow trout (Oncorhynchus mykiss) liver S9 fractions” (Frontiers in Toxicology, 2024)
